Measured values reported in patent US20110053993A1, “PRODRUGS OF DESAZADESFERROTHIOCIN POLYETHER ANALOGUES AS METAL CHELATION AGENTS” (FERROKIN BIOSCIENCES, INC., priority 2009, published 2011).

Test: In vitro pharmacokinetic (metabolic) stability in human whole blood
Type: in vitro ADME
Settings: 5 μM test compound, 37° C., time points 0, 0.5, 1, 4, 6 and 24 hours, LC/MS/MS, percent compound remaining
Method: In Vitro Pharmacokinetic Stability Evaluation
Compounds were tested for metabolic stability in human whole blood. Such testing is commonly undertaken prior to or along with advanced preclinical testing in order to identify compounds with desirable pharmacokinetic properties. Into each of 6 centrifuge tubes was added 2 μL of test compound and 198 μL of human whole blood, taken from normal, healthy volunteers, to achieve a final concentration of 5 μM. Tubes were then incubated at 37° C. at approximately 100 rpm on an orbital shaker. One of the tubes was taken at designated time points including 0, 0.5, 1, 4, 6 and 24 hours. The reaction was stopped by the addition of 4 volumes of cold methanol. Samples were centrifuged at 20,000 rpm for 20 minutes to precipitate protein. A 200 μL aliquot of the supernatant was used for LC/MS/MS analysis for each compound at each time point. All experiments were performed in duplicate. The LC system comprised a Shimadzu liquid chromatograph separation system equipped with degasser DGU-20A3, solvent delivery unit LC-20AD, system controller CBM-20A, column oven CTO-10ASVP and CTC Analytics HTC PAL System. Mass spectrometric analysis was performed using an API 4000 instrument from AB Inc. (Canada) with an ESI interface. […]

In the case of “Mevinolin [Reference (Mevinolin), reference compound]”, the “Half Life” value is reported as 4 to 6 h.
